From US20050038113A1, “Valproic acid and derivatives for the combinatorial therapeutic treatment of human cancers and for the treatment of tumor metastasis and minimal residual disease” (G2M Cancer Drugs AG, priority 2001, published 2005) come the findings set out here.

Holding throughout (test): MTT cell viability assay
What all share (type): cell-based, Human

The subject of experiment [1] is SKBR3 breast carcinoma cells. The note with it: single reagent, 70 h; valproic acid 3 mM, Herceptin 2 μg/ml. Here is the method: (§1) Human MDA-MB468, MDA-MB453 and SKBR3 breast carcinoma cells and A431 squamous cell carcinoma cells were maintained in Dulbecco's modified Eagle's medium (DMEM, BioWhittaker, Verviers, Belgium) supplemented with 10% heat inactivated fetal bovine serum (FBS), 2 mM L-glutamine, 100 units/ml penicillin, and 100 μg/ml streptomycin.
(§2) Tumor cells were seeded in 96 well plates at a density of 1×10^4 cells/well in normal growth medium. […] After solubilization of the formazan product, the absorption at 590 nm was determined in a microplate reader (Dynatech, Denkendorf, Germany) and the relative amount of viable cells in comparison to cells cultured without the addition of valproic acid or antibodies was calculated. […]
(§3) Tumor cells were seeded in 96 well plates at a density of 1×10^4 cells/well in normal growth medium. […] After solubilization of the formazan product, the absorption at 590 nm was determined in a microplate reader (Dynatech, Denkendorf, Germany) and the relative amount of viable cells in comparison to cells cultured without the addition of valproic acid or antibody-toxins was calculated.

The test system of experiment [2] is MDA-MB453 breast carcinoma cells. The note with it: single reagent, 70 h; valproic acid 3 mM, Herceptin 2 μg/ml. Here is the method:
as §1
(§4) Tumor cells were seeded in 96 well plates at a density of 1×10^4 cells/well in normal growth medium. Cells were treated for 70 h with valproic acid at a final concentration of 3 mM, or 2 μg/ml of the therapeutic anti-ErbB2 antibody Herceptin™, or 2 μg/ml of the therapeutic anti-EGF receptor antibody c225 (Fan & Mendelsohn, Curr. Opin. Oncol., 10: 67-73, 1998), or a combination of valproic acid with either Herceptin™ or c225 antibodies at the same concentrations. Control cells were grown in the absence of valproic acid or antibodies. 10 μl of 10 mg/ml 3-(4,5-dimethylthiazole-2-yl)-2,5 diphenyltetrazolium bromide (MTT) (Sigma, Deisenhofen, Germany) in PBS were added to each well and the cells were incubated for another 3 h. […] After solubilization of the formazan product, the absorption at 590 nm was determined in a microplate reader (Dynatech, Denkendorf, Germany) and the relative amount of viable cells in comparison to cells cultured without the addition of valproic acid or antibodies was calculated.

Experiment [3] has as its system A431 squamous cell carcinoma cells. Conditions: single reagent, 70 h; valproic acid 3 mM, c225 2 μg/ml. Here is the method: as §1, §2, §3
Experiment [4] concerns MDA-MB468 breast carcinoma cells. Conditions: single reagent, 70 h; valproic acid 3 mM, c225 2 μg/ml. Here is the method: as §1, §4

Regarding “Herceptin™: therapeutic anti-ErbB2 antibody”, the cell viability entry in experiment [1] and in experiment [2] was “inhibit the viability” in each case.

In the case of “c225: therapeutic anti-EGF receptor antibody”, the cell viability entry in experiment [3] and in experiment [4] was “inhibit the viability” each time.
